The entries are a selection whose mix differs from that of the whole data set. The source made the active and inactive calls.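 The calls were made as follows: active = inhibition above a per-plate limit, mean inhibition of low control wells plus 3 SD (cut at about 25% in these data); inactive = the rest.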

Chains of the proteins cited; added tags and fusions are not shown. Residues count along the entry.
UniProt Q62848, 1-136 limits assumed: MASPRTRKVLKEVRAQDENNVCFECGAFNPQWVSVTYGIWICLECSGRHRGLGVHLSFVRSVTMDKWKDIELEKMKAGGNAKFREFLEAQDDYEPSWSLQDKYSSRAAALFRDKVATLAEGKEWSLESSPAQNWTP

This assay has as its target ADP-ribosylation factor GTPase-activating protein 1 (Rattus norvegicus) (UniProt Q62848). Put plainly: blockers of ARFGAP1-stimulated ARF1 GTP hydrolysis – biochemical, fluorescence polarization, GDP tracer, primary screen (AID 651572).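 Also: 0% = DMSO wells with enzyme and 100% = wells lacking Arfgap1.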 The conditions noted are these: GDP FP detection, at 16.5 µM, stronger effect = higher value. In short, it runs like this: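 Repeats: one replicate per compound; assay system: rat Arfgap1 catalytic domain, aa 1-136; times: enzyme reaction 120 min at 25 °C after 20 min preincubation; detection: FP of antibody-bound GDP Alexa 633 tracer, ex 620/em 688 nm; benchmarks: high control wells lacking Arfgap1, low control full reaction with DMSO; reagent: human ARF1(Δ1-17)-GTP substrate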
(In fluorescence polarisation assays a small probe gives low polarisation when free and higher when bound to something large.)
`O=[N+]([O-])c1cc([N+](=O)[O-])c(O)c([N+](=O)[O-])c1.c1ccc(Oc2ccncc2)cc1`: the inhibition (in general, the drop in the measured response relative to a control, in per cent) was inactive: 1.95%.

Turning to `CCOC(=O)c1ccc(NP(C)(=O)Oc2ccc(OC)cc2)cc1` (centres undefined), the inhibition is inactive: 4.16%.

With `CCOP(C)(=S)SCC(=O)NC(C)C(=O)O` (centres undefined), the inhibition is inactive: 3.45%.

For `CP(=O)(Nc1ccccn1)Oc1ccc(Cl)cc1` (centres undefined), the inhibition was inactive: 13.2%.

As to `CP(=O)(Nc1ccc(SC(F)(F)F)cc1)Oc1ccc(Cl)cc1` (centres undefined), the inhibition is inactive: -7.16%.

As to `Cc1cccc(C)c1OP(C)(=O)Nc1ccc(SC(F)(F)F)cc1` (centres undefined), the inhibition is inactive: 5.39%.

For `CP(=O)(Oc1ccccc1)OC(c1ccccc1)C(F)(F)F` (centres undefined), the inhibition was inactive: 12.8%.

Regarding `CCc1ccc(OP(C)(=O)N2CCN(c3ccc([N+](=O)[O-])cc3)CC2)cc1` (centres undefined), the inhibition is inactive: 0.29%.

Turning to `CP(=O)(NC(=O)Nc1ccccc1)Oc1ccccc1` (centres undefined), the inhibition is inactive: 5.71%.

Consider `Cc1cc(C)cc(OP(C)(=O)Nc2ccc(SC(F)(F)F)cc2)c1` (centres undefined), for which the inhibition was inactive: 9.51%.

As for `CP(=S)(Nn1cnnc1)Oc1ccccc1` (centres undefined), the inhibition was inactive: -7.18%.

On to `CP(=O)(Nc1ccccc1Br)Oc1ccccc1` (centres undefined), for which the inhibition was inactive: -4.19%.

On to `COc1ccccc1OP(C)(=O)Nc1ccccc1` (centres undefined), for which the inhibition is inactive: 1.73%.

With `COc1ccccc1OP(C)(=O)Nc1ccc(C)cc1` (centres undefined), the inhibition was inactive: 9.44%.

Consider `Cc1ccc(NP(C)(=O)Oc2ccccc2)c(C)c1` (centres undefined), for which the inhibition was inactive: -2.65%.

With `CCOC(=O)c1ccc(NP(C)(=O)Oc2ccccc2)cc1` (centres undefined), the inhibition is inactive: 9.31%.

Take `Cc1cc(C)cc(OP(C)(N)=O)c1` (centres undefined): the inhibition is inactive: -1.5%.

Take `COc1ccccc1OP(C)(=O)Nc1cc(Cl)ccc1C` (centres undefined): the inhibition is inactive: -0.22%.

As for `COc1ccc(OP(C)(=O)Nc2cccc(F)c2)cc1` (centres undefined), the inhibition is inactive: 13%.

Consider `O=[N+]([O-])c1cc([N+](=O)[O-])c(Nc2cccnc2)c([N+](=O)[O-])c1`, for which the inhibition is inactive: 4.17%.

On to `O=[N+]([O-])c1ccc2c(c1)C=Nc1ccccc1O2`, for which the inhibition was inactive: 1.62%.

In the case of `CC(C)(C)c1ccc(OP(C)(=O)Nc2ccc(SC(F)(F)F)cc2)cc1` (centres undefined), the inhibition is inactive: -3.65%.

`Cc1cccc(C)c1OP(C)(N)=O` (centres undefined): the inhibition was inactive: -5.83%.

For `COc1ccccc1-c1ccccn1.O=[N+]([O-])c1cc([N+](=O)[O-])c(O)c([N+](=O)[O-])c1`, the inhibition was inactive: -1.4%.

`CCN(CC)CCCOC(=O)C(O)(c1ccccc1)c1ccccc1`: the inhibition is inactive: 10.1%.

As to `Cc1ccc(C)c(NP(C)(=O)Oc2ccccc2)c1` (centres undefined), the inhibition was inactive: 2.48%.

Turning to `CP(=O)(Nc1cccc(Br)c1)Oc1ccccc1` (centres undefined), the inhibition was inactive: -0.24%.

As to `Cc1cc(C)cc(OP(C)(=O)Nc2ccccn2)c1` (centres undefined), the inhibition was inactive: 2.63%.

Turning to `COc1ccccc1OP(C)(=O)Nc1cccc(Br)c1` (centres undefined), the inhibition is inactive: -6.3%.

As for `CCOC(=O)c1ccc(NP(C)(=O)Oc2cc(C)cc(C)c2)cc1` (centres undefined), the inhibition was inactive: -2.74%.

For the molecule `Cc1cc(C)cc(OP(C)(=O)Nc2ccc(C)cc2C)c1` (centres undefined), the inhibition was inactive: -2.71%.

For `CC1=NCCc2c1[nH]c1ccccc21.O=[N+]([O-])c1cc([N+](=O)[O-])c(O)c([N+](=O)[O-])c1`, the inhibition is inactive: -2.51%.

As to `O=C(O)c1cccc(Nc2c([N+](=O)[O-])cc([N+](=O)[O-])cc2[N+](=O)[O-])c1`, the inhibition is inactive: 14.7%.

Consider `CN1CCCCC1COC(=O)C1(O)c2ccccc2CCc2ccccc21` (centres undefined), for which the inhibition was inactive: 7.47%.

For the molecule `COc1ccccc1OP(C)(=O)Nc1c(C)cccc1C` (centres undefined), the inhibition was inactive: -6.3%.

With `COc1ccc(-c2ccccn2)cc1.O=[N+]([O-])c1cc([N+](=O)[O-])c(O)c([N+](=O)[O-])c1`, the inhibition was inactive: 7.99%.

Take `CP(=O)(Nc1ccc(SC(F)(F)F)cc1)Oc1ccccc1` (centres undefined): the inhibition is inactive: 16%.

Turning to `CCCOc1ccc(NP(C)(=O)Oc2ccc(Cl)cc2)cc1` (centres undefined), the inhibition is inactive: -2.41%.

Turning to `O=[N+]([O-])c1cc([N+](=O)[O-])c(Nc2nnnn2CCO)c([N+](=O)[O-])c1`, the inhibition is inactive: 8.72%.

Take `CCOC(=O)C(CC)C1=NC(C)(C)Cc2ccccc21.O=[N+]([O-])c1cc([N+](=O)[O-])c(O)c([N+](=O)[O-])c1` (centres undefined): the inhibition is inactive: 2.31%.

Consider `O=[N+]([O-])c1cc([N+](=O)[O-])c(-c2cnn(-c3ccccc3)c2)c([N+](=O)[O-])c1`, for which the inhibition is inactive: -3.84%.

`Cc1nc2ccc3ccccc3c2s1.O=[N+]([O-])c1cc([N+](=O)[O-])c(O)c([N+](=O)[O-])c1`: the inhibition is inactive: 5.1%.

Regarding `O=[N+]([O-])c1cc([N+](=O)[O-])c(-n2nnc3ccccc32)c([N+](=O)[O-])c1`, the inhibition is inactive: -6.91%.

As to `CN(Cc1cccnc1)C(=O)COc1ccc(Cl)c(Cl)c1.O=[N+]([O-])c1cc([N+](=O)[O-])c(O)c([N+](=O)[O-])c1`, the inhibition was inactive: 0.35%.

As for `CP(=O)(Nc1ccc2c(c1)OCCO2)Oc1ccccc1` (centres undefined), the inhibition was inactive: -0.61%.

In the case of `Cc1ccccc1NP(C)(=O)Nc1ccccc1C`, the inhibition was inactive: -4.24%.

Consider `O=[N+]([O-])c1cc([N+](=O)[O-])c(C(F)(F)F)c([N+](=O)[O-])c1O`, for which the inhibition was inactive: 4.7%.

In the case of `CP(=O)(Nc1ccc(SC(F)(F)F)cc1)Oc1ccc(F)cc1` (centres undefined), the inhibition is inactive: -12.3%.

For the molecule `CCOP(C)(=S)SCC(=O)NC(C)(CC)C(=O)O` (centres undefined), the inhibition was inactive: -9.61%.

For the origin of these results see PubChem BioAssay AID651572 (The Scripps Research Institute Molecular Screening Center, 2012).
